Reference: paper PMC12822184, “Targeting E2F8 sensitizes gemcitabine-resistant gallbladder cancer to PARP inhibitors by disrupting RRM2-driven DNA repair” (Journal of Experimental & Clinical Cancer Research : CR, 2025)

Amino acid sequences for entries named in this document (tags omitted). Residues count along the entry.
UniProt A0AVK6, 110-350 limits assumed: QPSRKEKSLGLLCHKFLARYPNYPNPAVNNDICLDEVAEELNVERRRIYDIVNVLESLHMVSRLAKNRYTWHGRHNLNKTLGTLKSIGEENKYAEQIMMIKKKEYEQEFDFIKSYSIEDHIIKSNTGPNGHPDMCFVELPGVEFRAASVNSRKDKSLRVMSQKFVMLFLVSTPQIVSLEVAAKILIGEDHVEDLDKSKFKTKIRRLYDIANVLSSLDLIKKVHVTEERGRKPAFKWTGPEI

Biological target: E2F8 DNA-binding domain (Homo sapiens, UniProt A0AVK6)
Test: SPR (Biacore 8K, CM5 amine coupling, steady-state […])
Conditions: 20 mM HEPES pH 7.5, 200 mM NaCl, 1% DMSO, 25 °C; protein immobilized

Kd: 10.5 µM
Structure (SMILES): COc1ccccc1OCC(=O)NN=Cc1ccc(OCC(=O)O)c(OCC(=O)O)c1
